Source: patent US9718790B2, “Triazine derivative and pharmaceutical composition having an analgesic activity comprising the same” (SHIONOGI & CO., LTD., priority 2010, dated 2017)
Read-outs that look alike come from different tables or passages of the source.

By UniProt entry, the sequences of proteins in these tests, tags left out. Where a name states a change or a piece, a line headed by the entry shows the natural chain unless it says otherwise.
UniProt P56373: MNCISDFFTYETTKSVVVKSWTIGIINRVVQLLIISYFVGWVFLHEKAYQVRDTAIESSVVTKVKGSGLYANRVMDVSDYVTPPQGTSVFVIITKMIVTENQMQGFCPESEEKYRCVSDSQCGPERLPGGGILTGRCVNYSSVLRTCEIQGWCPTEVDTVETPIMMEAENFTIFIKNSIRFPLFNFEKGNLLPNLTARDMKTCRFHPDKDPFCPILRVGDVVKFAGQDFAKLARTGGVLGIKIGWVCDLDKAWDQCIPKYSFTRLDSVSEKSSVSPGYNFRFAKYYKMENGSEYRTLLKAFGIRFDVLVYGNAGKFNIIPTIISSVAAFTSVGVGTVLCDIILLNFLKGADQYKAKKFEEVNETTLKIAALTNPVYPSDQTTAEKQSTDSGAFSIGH

Biological target: human P2X3 receptor (Homo sapiens (Human), UniProt P56373)
Test: Evaluation of human P2X3 receptor inhibitory activity (Fluo-3 calcium fluorescence, FDSS 3000, ATP stimulation);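 further: stimulus was 50 nM ATP with fluorescence followed for 3 min, and the response per well was peak post-ATP fluorescence divided by the reading at measurement start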
Format: cell-based
[1] = C6BU-1 cells stably expressing human P2X3 receptor

Row | Structure (SMILES) | IC50 [nM] | IC50 [1] [nM]
1 | CCn1c(=O)[nH]/c(=N\c2ccc(Oc3cnc(C(=O)O)cn3)cc2)n(Cc2ccc(C)cc2)c1=O [Compound I-2384] | 5 | –
2 | COC(=O)[C@@H](C)Cn1c(=O)[nH]/c(=N\c2ccc(Oc3ccc(C)nc3)cc2)n(Cc2ccc(C)cc2)c1=O [Compound I-1209] | – | 6
3 | Cc1ccc(Cn2c(=O)n(C[C@H](C)C(=O)O)c(=O)[nH]/c2=N\c2ccc(Oc3ccc(C)nc3)cc2)cc1 [Compound I-1232] | – | 5
